The record followed here is PubChem BioAssay AID540303 (National Center for Advancing Translational Sciences (NCATS), 2011).

The structures appear in SMILES notation. The entries are a selection whose mix differs from that of the whole data set. Inconclusive results are not listed. Activity calls are given as the source filed them. Calls come from the whole dose curve; as a rule, active = well fitted inhibition curve with a large enough effect; inconclusive = small, poorly fitted or top-dose-only effect; inactive = no such curve, though single readings can be large or run the other way; tested in mouse RAW 264.7 cells.
% is set by controls: 0 for no effect and ±100 for the full control effect.

This assay is described as follows: qHTS for Inhibitors of Cell Surface uPA Generation. Note: nearly all actives have a fitted effect of over 55% in size. Conditions: cell surface uPA generation assay; series mostly up to 38.3 µM; activity change, negative = inhibition: at the top concentration. An excerpt: The overall objective of this project is to perform a quantitative high throughput screen (qHTS) to identify novel compounds that inhibit the generation of cell surface urokinase activity. The urokinase plasminogen activator (uPA) is one of the two primary endogenous systems that mediate plasminogen activation into plasmin. Members of this system, including uPA and its receptor (uPAR), are overexpressed in several malignant tumors. This system plays a major role in adhesion, migration, invasion and metastasis of cancer cells. Small molecule inhibitors of the uPA system will serve as probes to understand the molecular mechanisms of the uPA cascade and better understanding the microenvironmental circumstances that facilitate the activation of plasminogen by uPA, and finally may provide novel candidate agents for anticancer drug therapy.
[…] […] Upon inhibition of the uPA activation cascade, the subsequent cell surface uPA activity-dependent translocation of LF into the cytoplasm is inhibited. ATP-Lite is used to measure intracellular ATP concentrations, which remain increased if LF entry into the cytoplasm is inhibited. This validation assay was performed using a small set of validation compounds.
NIH Chemical Genomics Center [NCGC]
NIH Molecular Libraries Probe Centers Network [MLPCN]
Assay Submitter (PI): Thomas Bugge, National Institute of Dental and Craniofacial Research, NIH
Cultured RAW 264.7 were dispensed into 1536-well clear bottom, white walled tissue culture plates at a density of 4000 cells/well and were incubated overnight (12-16 h) at 37 C in a 5% CO2 incubator. Serially diluted compounds in 23 nl DMSO were added to cells. […] Compound and reagent-treated plates were incubated for 24 h at 37 C in a 5% CO2 incubator. Perkin Elmer ATPlitetrade mark 1 step (3 ul) was then added to each well. Luminescence was detected using a Perkin Elmer ViewLuxtrade mark plate reader.
1.Dispensing RAW 264.7 cells into 1536-well, white walled tissue culture plates at a density of 4000 cells/well (4 uL).
2.Incubation at 37 C in a 5% CO2 incubator overnight.
3.Serially diluting compounds (1:5 serial dilution; 0.0024 uM to […] final concentration) in 23 nl DMSO.
5.Incubating the compound and reagent-treated plates for 24 hours at 37 C in a 5% CO2 incubator.
6.Adding ATP-Lite (3 ul).
7.Reading plates by ViewLux with an exposure length of 5 seconds.
For the compound `CC(=O)Nc1ccc([As](=O)(O)O)c(O)c1`, the “activity change, negative = inhibition” value was inactive: -0.719%. The result for `CC(=O)Nc1ccc(Oc2c([N+](=O)[O-])cc([N+](=O)[O-])cc2[N+](=O)[O-])cc1` reads inactive: 11.2%; that for `O=P(Nc1nccs1)(c1ccccc1)c1ccccc1`, inactive: -5.43%; that for `CC(C)C(=O)NC(Sc1ccccc1)C(Cl)(Cl)Cl` (stereo unspecified), inactive: 11.5%. The result for `c1nnnn1CCn1cnnn1` reads inactive: 6.54%; that for `COc1ccc(N)c([N+](=O)[O-])c1[N+](=O)[O-]`, inactive: 3.48%; that for `CN(C)C1(CNC(=O)c2ccc(Cl)c(S(N)(=O)=O)c2)CCCCC1`, inactive: -0.774%. Turning to `O=P(Nc1ccccn1)(c1ccc(Br)cc1)c1ccc(Br)cc1`, the “activity change, negative = inhibition” value was inactive: -4.25%. In the case of `O=P(Nc1nc2ccccc2s1)(c1ccccc1)c1ccccc1`, the “activity change, negative = inhibition” value was inactive: 2.96%. The result for `C[C@H]1OP(=O)(Oc2ccccc2)[C@H](O)[C@H](O)[C@H]1N=[N+]=[N-]` (stereo partly specified) reads inactive: 2.35%; that for `O=[N+]([O-])c1ncn(CCn2cnc([N+](=O)[O-])n2)n1`, inactive: 3.4%; that for `CC(=O)NC(SC(=S)N(C)C)C(Cl)(Cl)Cl` (stereo unspecified), inactive: -5.97%. In the case of `O=[As](O)(c1ccccc1)c1ccc(O)cc1`, the “activity change, negative = inhibition” value is inactive: 5.62%. The result for `Nc1ccc([As](=O)(O)c2ccc([N+](=O)[O-])cc2)cc1` reads inactive: 0.858%; that for `C(Cc1nn[nH]n1)Cc1nn[nH]n1`, inactive: 2.93%; that for `Cc1nn(-c2ccccc2)c2c1P(=O)(N1CCOCC1)N(C)C(c1ccccc1)=N2` (stereo unspecified), inactive: -0.692%.

In the case of `Cc1ccc(C(=O)OC2CN3CCC2CC3)cc1` (stereo unspecified), the “activity change, negative = inhibition” value was inactive: -3.74%.

Turning to `CC1CCC(C(C)C)C(OP(=O)(Nc2ccccn2)c2ccccc2)C1` (stereo unspecified), the “activity change, negative = inhibition” value was inactive: 1.13%.

On to `O=C(/C=C/c1ccccc1)OC1CN2CCC1CC2` (stereo unspecified), for which the “activity change, negative = inhibition” value was inactive: 14.1%. Consider `CCCC1OP(=O)(Nc2ccccc2)OCC1CC` (stereo unspecified), for which the “activity change, negative = inhibition” value was inactive: -4.82%. The result for `CN(C)C1(CNC(=O)c2ccc(S(C)(=O)=O)cc2)CCCCC1` reads inactive: 2.12%; that for `O=P1(Nc2ncccn2)COc2ccccc2OC1`, inactive: 2.71%; that for `NS(=O)(=O)c1cccc(NC(=O)COC(=O)C(O)(c2ccccc2)c2ccccc2)c1`, inactive: 5.21%. The result for `O=P1(Nc2ccc(Br)cn2)COc2ccccc2OC1` reads inactive: 3.01%. The same measure for `O=[As](O)(c1cccs1)c1cccs1`: inactive: -9.36%; for `Cc1ccc(OCC(=O)OC2CN3CCC2CC3)cc1` (stereo unspecified): inactive: 5.83%.

In the case of `Nc1cccc([As](=O)(O)c2ccccc2)c1`, the “activity change, negative = inhibition” value was inactive: -18.3%.

For `CN(CCCl)Cc1cc(Cl)c(NC2=NCCN2)c(Cl)c1`, the “activity change, negative = inhibition” value was inactive: -8.59%. The same measure for `CCOP(=O)(Nc1ccc(C)cn1)OCC`: inactive: -8.97%.

In the case of `O=P1(Nc2ccccn2)COc2ccccc2OC1`, the “activity change, negative = inhibition” value is inactive: 1.13%. The same measure for `CCOP(=O)(NC(=NC(C)c1ccccc1)NC(C)c1ccccc1)OCC` (stereo unspecified): inactive: 0.0711%. For `Clc1n[nH]nc1-c1nn[nH][15n]1`, the “activity change, negative = inhibition” value was inactive: 1.08%. On to `CC(C)(C)C(=O)NC(Sc1ncccn1)C(Cl)(Cl)Cl` (stereo unspecified), for which the “activity change, negative = inhibition” value was inactive: 0.467%. The same measure for `COc1ccccc1CNC(=O)COC(=O)C(O)(c1ccccc1)c1ccccc1`: inactive: 9.2%; for `CC1(CBr)Cn2c(nc3ccccc3c2=O)S1` (stereo unspecified): inactive: 0.0827%; for `COc1cc(C(=O)NCC2(N3CCOCC3)CCCCC2)cc(Cl)c1OC(C)C`: inactive: 0.656%. The same measure for `O=[As](O)(O)c1cccnc1`: inactive: 2.96%; for `CS(=O)(=O)c1ccc(Cl)c(NC(=O)COC(=O)C(O)(c2ccccc2)c2ccccc2)c1`: inactive: 22.1%. For `O=C(OC1CN2CCC1CC2)c1ccc(Cl)cc1` (stereo unspecified), the “activity change, negative = inhibition” value is inactive: -1.58%.

In the case of `O=[As](O)(c1cccc(O)c1)c1cccc(O)c1`, the “activity change, negative = inhibition” value was inactive: 0.75%.

For `Cc1cccc(OCC(=O)OC2CN3CCC2CC3)c1` (stereo unspecified), the “activity change, negative = inhibition” value is inactive: -1.24%. For `CCCOP(=S)(Nc1nc(N)cc(=O)[nH]1)OCCC`, the “activity change, negative = inhibition” value was inactive: -1.06%. The same measure for `Nc1cccc2c([As](=O)(O)O)cccc12`: inactive: -1.11%; for `Cc1ccc(NCCc2c([N+](=O)[O-])cc([N+](=O)[O-])cc2[N+](=O)[O-])cc1`: inactive: -7.42%; for `COc1cc(C2NCCC3(OCCO3)C2(C)C)cc(OC)c1OC` (stereo unspecified): inactive: -3.09%. The same measure for `CCOP(=O)(Nc1cccc2ccccc12)OCC`: inactive: 0.471%. The result for `CS(=O)(=O)c1cc([N+](=O)[O-])c2no[n+]([O-])c2c1` reads inactive: -2.83%; that for `CCOP1(=S)c2c(C)nn(CCC#N)c2N=C(c2ccccc2F)N1C` (stereo unspecified), inactive: -2.18%; that for `O=P(Nc1nccs1)(c1ccccc1)c1nc2ccccc2s1` (stereo unspecified), inactive: -2.85%. For `O=P(Nc1nccs1)(Oc1ccccc1)Oc1ccccc1`, the “activity change, negative = inhibition” value is inactive: 8.95%. The result for `O=C(O)COc1ccc([As](=O)(O)O)cc1[N+](=O)[O-]` reads inactive: 6.25%; that for `Nc1ccccc1[As](=O)(O)c1ccccc1`, inactive: -2.6%; that for `NC(=O)Nc1ccc([As](=O)(O)O)cc1`, inactive: 10.4%. Turning to `CN(C)C(=O)c1cc([N+](=O)[O-])cc2c1-c1c(cc([N+](=O)[O-])cc1[N+](=O)[O-])C2=O`, the “activity change, negative = inhibition” value was inactive: -14%. The result for `N#CCCN(C(=O)COC(=O)C(O)(c1ccccc1)c1ccccc1)c1ccc(F)cc1` reads inactive: 2.89%; that for `CCOP1(=S)c2c(C)nn(CCC#N)c2N=C(c2ccc(F)cc2)N1C` (stereo unspecified), inactive: 6.29%. The same measure for `CN(C(=O)Cc1ccccc1)[C@@H]1CC[C@]2(CCCO2)C[C@H]1N1CCCC1`: inactive: -1.71%. The same measure for `O=[As](O)(c1ccc(O)cc1)c1ccccc1O`: inactive: 3.14%; for `C[As](=O)(O)c1cccc(C(=O)O)c1`: inactive: 8.5%. For `COc1cc(C(=O)NCC2(N3CCOCC3)CCCCC2)ccc1OCC(C)C`, the “activity change, negative = inhibition” value was inactive: 11.2%. The same measure for `O=[N+]([O-])c1ccc(-c2cc([N+](=O)[O-])c(O)c([N+](=O)[O-])c2)cc1`: inactive: -3.01%.
